{"source": "patent US4190666A", "about": "“Anti-inflammatory 4,5-diarly-2-(substituted-thio)imidazoles and their corresponding sulfoxides and sulfones” (E. I. Du Pont de Nemours and Company, priority 1978, dated 1980)", "tested_on": "established adjuvant-induced arthritis in rats", "test": "Established adjuvant-induced arthritis in rats (therapeutic, paw volume)", "type": "in vivo, Charles River Lewis male rats", "conditions": "oral, 7 daily doses, ED50% decrease from control paw volume, Tables I-III", "data": [{"smiles": "COc1ccc(-c2nc(SC(F)(F)C(Br)Br)[nH]c2-c2ccc(OC)cc2)cc1", "values": [{"measurement": "Adjuvant Arthritis (ED50%)", "value": 23, "unit": "mg/kg"}]}]}
